{"sequences": {"note": "Sequences of proteins named here, by UniProt entry; tags and fusion partners are left off.", "UniProt P19174, whole entry": "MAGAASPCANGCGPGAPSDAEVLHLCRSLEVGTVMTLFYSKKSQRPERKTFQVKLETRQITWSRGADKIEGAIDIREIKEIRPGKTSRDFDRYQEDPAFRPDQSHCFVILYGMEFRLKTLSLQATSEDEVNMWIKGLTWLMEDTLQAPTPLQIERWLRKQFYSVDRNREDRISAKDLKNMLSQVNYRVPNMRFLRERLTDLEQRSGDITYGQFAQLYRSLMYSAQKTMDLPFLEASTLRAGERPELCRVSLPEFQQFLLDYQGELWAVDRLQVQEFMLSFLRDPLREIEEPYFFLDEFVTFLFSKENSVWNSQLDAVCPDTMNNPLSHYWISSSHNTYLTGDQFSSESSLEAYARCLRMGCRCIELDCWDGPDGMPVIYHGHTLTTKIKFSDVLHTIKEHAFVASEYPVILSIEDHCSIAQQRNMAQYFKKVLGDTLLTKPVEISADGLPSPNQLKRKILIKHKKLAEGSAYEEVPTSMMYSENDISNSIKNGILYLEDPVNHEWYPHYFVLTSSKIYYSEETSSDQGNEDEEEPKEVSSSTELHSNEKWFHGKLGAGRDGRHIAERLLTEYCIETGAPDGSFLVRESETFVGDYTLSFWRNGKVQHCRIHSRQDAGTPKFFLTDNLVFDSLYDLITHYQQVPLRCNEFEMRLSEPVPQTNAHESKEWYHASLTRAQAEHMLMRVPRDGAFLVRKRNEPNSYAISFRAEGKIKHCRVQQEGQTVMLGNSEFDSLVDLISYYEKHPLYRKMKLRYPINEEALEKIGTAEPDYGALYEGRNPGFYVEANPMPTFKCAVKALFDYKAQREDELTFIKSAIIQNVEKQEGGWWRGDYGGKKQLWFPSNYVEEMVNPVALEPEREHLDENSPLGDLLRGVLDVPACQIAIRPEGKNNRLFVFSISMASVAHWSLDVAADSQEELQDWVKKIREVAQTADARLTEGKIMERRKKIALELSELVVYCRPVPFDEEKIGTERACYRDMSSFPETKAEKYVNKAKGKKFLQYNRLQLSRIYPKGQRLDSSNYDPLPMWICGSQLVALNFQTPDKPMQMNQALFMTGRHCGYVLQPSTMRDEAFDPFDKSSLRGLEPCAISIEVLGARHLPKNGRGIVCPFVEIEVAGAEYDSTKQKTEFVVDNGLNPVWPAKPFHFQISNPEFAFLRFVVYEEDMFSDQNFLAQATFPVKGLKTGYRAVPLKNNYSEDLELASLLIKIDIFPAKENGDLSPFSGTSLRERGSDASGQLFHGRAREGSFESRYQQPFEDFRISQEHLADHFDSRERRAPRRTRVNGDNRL"}, "source": "PubChem BioAssay AID720700", "about": "(The Scripps Research Institute Molecular Screening Center, 2013)", "note": "This is a selection; strong and weak results do not stand in their true shares. Some tests of the compounds listed are not included; inactive here does not mean inactive elsewhere. Calls of active or inactive are those of the source. Rule as the data show it: active = inhibition above about 9.5%; inactive = the rest."}
{"biological_target": "1-phosphatidylinositol 4,5-bisphosphate phosphodiesterase gamma-1 (Homo sapiens) (UniProt P19174)", "assay": "blockers of human PLCG1 activity – biochemical, fluorescence, purified enzyme, primary screen (AID 720700)", "conditions": "purified PLC-gamma1, fluorogenic substrate, at 12.2 µM, stronger effect = higher value"}
{"compound": "COc1cc(C(=O)NCC2(N(C)C)CCCCC2)c([N+](=O)[O-])cc1OC", "inhibition": "inactive: -1.52%"}
{"compound": "CN(C)C1(CNC(=O)c2ccc(Br)cc2)CCCCC1", "inhibition": "inactive: -1.75%"}
{"compound": "O=C(NCC1(N2CCCCC2)CCCCC1)c1cccc(Cl)c1", "inhibition": "inactive: 0.12%"}
{"compound": "COc1ccc(Cl)cc1C(=O)NCC1(N(C)C)CCCCC1", "inhibition": "inactive: 5.37%"}
{"compound": "COc1cccc(C(=O)NCC2(N3CCCCC3)CCCCC2)c1", "inhibition": "inactive: 0.07%"}
{"compound": "O=C(OC1CN2CCC1CC2)C(CO)(c1ccccc1)c1ccccc1", "note": "(stereo not given)", "inhibition": "inactive: 1.55%"}
{"compound": "O=C(OCCN1CCCC1)C(O)(c1ccccc1)c1ccccc1", "inhibition": "inactive: -0.95%"}
{"compound": "CC(C)Oc1ccc(C(=O)NCC2(N(C)C)CCCCC2)cc1", "inhibition": "inactive: -2.54%"}
{"compound": "CN(C)c1cccc(C(=O)NCC2(N(C)C)CCCCC2)c1", "inhibition": "inactive: -69.8%"}
{"compound": "C=C(C)C#CC(O)(C(=O)OC1CCN(C)CC1)c1ccccc1", "note": "(stereo not given)", "inhibition": "inactive: 0.23%"}
{"compound": "COc1ccc(Br)c(C(=O)NCC2(N3CCCCC3)CCCCC2)c1", "inhibition": "inactive: -0.12%"}
{"compound": "CN1[C@@H]2CC[C@H]1CC(OC(=O)C(O)(c1ccccc1)c1ccccc1)C2", "note": "(stereo not given in full)", "inhibition": "inactive: -0.76%"}
{"compound": "O=C(NCC1(N2CCCCC2)CCCCC1)c1cc([N+](=O)[O-])ccc1Cl", "inhibition": "inactive: -0.56%"}
{"compound": "Cc1ccc(C(=O)NCC2(N3CCCCC3)CCCCC2)cc1", "inhibition": "inactive: 0.3%"}
{"compound": "COc1cc(SC)ccc1C(=O)NCC1(N(C)C)CCCCC1", "inhibition": "inactive: 0.78%"}
{"compound": "CCN(CC)CC(C)C(C)OC(=O)C(O)(c1ccccc1)c1ccccc1", "note": "(stereo not given)", "inhibition": "inactive: 0.91%"}
{"compound": "CC(C)N1C(=O)CC2(CCN(CCOC(=O)C(O)(c3ccccc3)c3ccccc3)CC2)C1=O", "inhibition": "inactive: -0.66%"}
{"compound": "CN(C)C1CCCC1OC(=O)C(O)(c1ccccc1)c1ccccc1", "note": "(stereo not given)", "inhibition": "inactive: 1.92%"}
{"compound": "CN(C)c1ccc(C(=O)NCC2(N(C)C)CCCCC2)cc1", "inhibition": "inactive: 1.39%"}
{"compound": "Cc1ccccc1C(=O)NCC1(N2CCCCC2)CCCCC1", "inhibition": "inactive: 2.38%"}
{"compound": "COc1ccc(C(=O)NCC2(N(C)C)CCCCC2)cc1", "inhibition": "inactive: 0.33%"}
{"compound": "O=C(NCC1(N2CCCCC2)CCCCC1)c1cccc(Br)c1", "inhibition": "inactive: 1.32%"}
{"compound": "Cc1cc(C(=O)NCC2(N3CCCCC3)CCCCC2)ccc1[N+](=O)[O-]", "inhibition": "inactive: 1.83%"}
{"compound": "O=C(NCC1(N2CCCCC2)CCCCC1)c1cc(F)c(F)cc1Cl", "inhibition": "inactive: 0.76%"}
{"compound": "C=CCN1CCN(CCOC(=O)C(O)(c2ccccc2)c2ccccc2)CC1", "inhibition": "inactive: 5.03%"}
